{"source": "patent US9216181B2", "about": "“BMP-2 upregulating compounds for healing bone tissue and screening methods for selecting such compounds” (Southwest Research Institute, priority 2011, dated 2015)", "molecules": {"B1": {"name": "BMP-2: bone morphogenetic protein-2, growth factor used as positive control (protein, UniProt P12643 283-396, looked up)", "Bone morphogenetic protein 2": "QAKHKQRKRLKSSCKRHPLYVDFSDVGWNDWIVAPPGYHAFYCHGECPFPLADHLNSTNHAIVQTLVNSVNSKIPKACCVPTELSAISMLYLDENEKVVLKNYQDMVVEGCGCR"}}, "test_system": "C3H10T1/2 cells", "assay": "Visual observation of morphological differentiation of C3H10T1/2 MSC", "assay_type": "cell-based, mouse", "conditions": "enhanced medium withdrawn before addition", "experimental": "Conveniently the post-confluent cell line is known to be sensitive to BMP-2 induced chondrogenesis and osteogenenesis (Shea, C. M., et al., “BMP treatment of C3H10T1/2 mesenchymal stem cells induces both chondrogenesis and osteogenesis”, J. Cell Biochem, 2003; 90: 1112). The sequence of differentiation follows chondrogenesis→osteogenesis and demands a continuous exposure to BMP-2 or the cells re-differentiate by default into adipocyctes.\nThe C3H10T1/2 cells were grown in an enhanced growth medium of BGjb (Irvine Scientific, Santa Ana, Calif.). The enhanced medium was withdrawn prior to adding positive controls, BMP-2, Lovastatin and PS-1. Cell differentiation was induced by this protocol and morphological changes were observed by visual observation. […] While it is possible that some of the osteoblastic type structures identified were chondroblasts, chondroblasts and osteoblasts can appear rather similar since both are symmetric cells and differentiation into either is indicative of the bone repair process."}
{"molecule": "B1", "values": [{"measurement": "morphological changes by visual observation", "value": "promoted differentiation into osteoblastic type structure and promoted cell proliferation"}]}
